Test results as given in patent US20150038588A1, “COMPOSITIONS AND METHODS OF TREATMENT OF STATUS EPILEPTICUS” (published 2015).

Test system: soman-induced seizures
Experiment: soman-induced seizure (SE) delayed treatment model, anticonvulsant test with EEG
Conditions: for ED50 for anticonvulsant effect: IP, rats; for latency for seizure control (administration to last epileptiform event on EEG): 20 min versus 40 min treatment time

SMILES: CCC(C)C(CC)C(N)=O (stereo not drawn)
- ED50 for anticonvulsant effect (5 min treatment delay after seizure onset): 25.8 mg/kg
- ED50 for anticonvulsant effect (20 min treatment delay after seizure onset): 60 mg/kg and 60.0 mg/kg
- latency for seizure control (administration to last epileptiform event on EEG): shorter latency at the 20 min treatment time than the 40 min treatment time
- latency for seizure control (administration to last epileptiform event on EEG) (listed as valnoctamide (VCD)): shorter latency at the 20-min treatment time than the 40-min treatment time
- ED50 for anticonvulsant effect (40 min treatment delay after seizure onset): 62 mg/kg and 62.0 mg/kg
- anticonvulsant effect (all three test delay times (5, 20, 40 min)): robust anticonvulsant effects

Values joined by “and” are separate entries in the source; they are usually repeats but may differ in a detail not shown here. Equal entries are not always repeated.
